The assay has as its system HEK293 cells. The settings on record: MgSO4 as modifier to octoxynol-9/DB lysis and flocculation; both low (37 mM) and high (120 mM) concentrations.

Consider `O=S(=O)([O-])[O-].[Mg+2]` [MgSO4, magnesium sulfate], for which the increase in productivity is given as about 2 fold.

The values above are taken from patent US20240287470A1 (priority 2023, published 2024).
